Each structure is given as a SMILES string.

Chains of the proteins cited; added tags and fusions are not shown. Residues count along the entry.
UniProt P25116, 22-425 limits assumed: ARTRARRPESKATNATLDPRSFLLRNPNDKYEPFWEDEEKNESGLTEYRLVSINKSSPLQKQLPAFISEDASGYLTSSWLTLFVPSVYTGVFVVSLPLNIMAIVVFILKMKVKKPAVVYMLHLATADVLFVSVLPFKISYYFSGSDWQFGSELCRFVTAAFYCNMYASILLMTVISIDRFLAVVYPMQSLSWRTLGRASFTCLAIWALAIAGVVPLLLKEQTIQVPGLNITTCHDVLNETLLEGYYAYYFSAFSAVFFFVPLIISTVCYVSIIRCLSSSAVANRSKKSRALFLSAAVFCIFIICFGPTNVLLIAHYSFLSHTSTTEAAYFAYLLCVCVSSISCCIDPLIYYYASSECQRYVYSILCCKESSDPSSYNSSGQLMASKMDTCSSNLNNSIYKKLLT

This note sets out measurements from patent publication US8324172B2, “G protein coupled receptor agonists and antagonists and methods of activating and inhibiting G protein coupled receptors using the same” (Tufts Medical Center, Inc., priority 2000, dated 2012).

This test deals with PAR1 (Homo sapiens, UniProt P25116). Description: InsP formation (PLC-β) in Rat1 fibroblasts expressing human PAR1. It counts as cell-based. The following applies: PAR1-Rat1 cells; for EC50: read-out: EC50 of stimulation of InsP production.

As for `CCCCCCCCCCCCCCCC(=O)N[C@@H](C)C(=O)N[C@H](C(=O)N[C@@H](C)C(=O)N[C@@H](CC(N)=O)C(=O)N[C@@H](CCCNC(=N)N)C(=O)N[C@@H](CO)C(=O)N[C@@H](CCCCN)C(=O)N[C@@H](CCCCN)C(=O)N[C@@H](CO)C(=O)N[C@@H](CCCNC(=N)N)C(=O)N[C@@H](C)C(=O)N[C@@H](CC(C)C)C(=O)N[C@@H](Cc1ccccc1)C(N)=O)C(C)C` [Pepducin P1pal-13], the EC50 was determined as 700 nM.
Consider `CCCCCCCCCCCCCCCC(=O)N[C@@H](CCCNC(=N)N)C(=O)N[C@@H](CS)C(=O)N[C@@H](CC(C)C)C(=O)N[C@@H](CO)C(=O)N[C@@H](CO)C(=O)N[C@@H](CO)C(=O)N[C@@H](C)C(=O)N[C@H](C(=O)N[C@@H](C)C(=O)N[C@@H](CC(N)=O)C(=O)N[C@@H](CCCNC(=N)N)C(=O)N[C@@H](CO)C(N)=O)C(C)C` [Pepducin P1pal-12], for which the “stimulation of InsP production (agonist activity)” value is recorded as “loss of stimulatory activity”.
For the molecule `CCCCCCCCCCCCCCCC(=O)N[C@@H](CCCNC(=N)N)C(=O)N[C@@H](CS)C(=O)N[C@@H](CC(C)C)C(=O)N[C@@H](CO)C(=O)N[C@@H](CO)C(=O)N[C@@H](CO)C(=O)N[C@@H](C)C(=O)N[C@H](C(=O)N[C@@H](C)C(=O)N[C@@H](CC(N)=O)C(=O)N[C@@H](CCCNC(=N)N)C(=O)N[C@@H](CO)C(=O)N[C@@H](CCCCN)C(=O)N[C@@H](CCCCN)C(=O)N[C@@H](CO)C(=O)N[C@@H](CCCNC(=N)N)C(=O)N[C@@H](C)C(=O)N[C@@H](CC(C)C)C(=O)N[C@@H](Cc1ccccc1)C(N)=O)C(C)C` [Pepducin P1pal-19], the EC50 was found to be 180 nM.
On to `CCCCCCCCCCCCCCCC(=O)N[C@@H](CCCCN)C(=O)N[C@@H](CCCCN)C(=O)N[C@@H](CO)C(=O)N[C@@H](CCCNC(=N)N)C(=O)N[C@@H](C)C(=O)N[C@@H](CC(C)C)C(=O)N[C@@H](Cc1ccccc1)C(N)=O` [Pepducin P1pal-7, Pal-KKSRALF], for which the “stimulation of InsP production (agonist activity)” value is recorded as “loss of stimulatory activity”.

Broadly, the EC50 is the concentration needed to bring the measured effect to its halfway point.
